Laboratory results published in patent US20220143226A1, “USE OF TRIAZOLO[4,5-D]PYRIMIDINE DERIVATIVES” (UNIVERSITÉ DE LIÈGE, priority 2019, published 2022).

Tests used:
Format in all cases: cell-based, human
THP1 cells = assay: Radiotracer uptake into THP1 cells
Protocol: (§1) THP1 (ATCC® TIB-202™) and HL60 (ATCC® CCL-240™) cell lines were grown in RPMI 1640 tissue culture medium supplemented with L-glutamine, 10% foetal calf serum and 1% penicillin/streptomycin at 37° C. and 5% CO2. HT29 cell line (ATCC® HTB-38) was grown in McCoy's 5A medium and 10% foetal bovine serum at 37° C. and 5% CO2.
(§2) Non-adherent cell lines (HL60, THP1; 1×10^6 cells ml^−1) were harvested, washed and resuspended in 1 ml tissue culture medium. The adherent cells HT29 were maintained in 6-well plates at 80% confluence.
(§3) Bacteria and non-adherent cells were harvested by centrifugation (600×g, 5 min) and washed three times by successive centrifugations. Cell supernatants were collected in scintillation vials. After washing, the cells were transferred into scintillation vials. Adherent cells were washed three times with fresh medium (McCoy's 5A medium plus 10% foetal bovine serum). Supernatants were collected into scintillation vials. Adherent cells were detached by trypsin treatment and placed into scintillation vials. The scintillation vials for cells and supernatants were counted by gamma counter. Results were obtained as counts per min. Results were normalised for controls (no cells) and by calculating the percentage of activity in the cell containing scintillation vials compared with the total counts (cells and supernatant combined).

HL60 cells = assay: Radiotracer uptake into HL60 cells
Protocol: as §1, §2, §3

HT29 cells = assay: Radiotracer uptake into HT29 cells
Protocol: as §1, §2, §3

^18F-fluorodeoxyglucose [^18F-FDG, reference compound]
uptake: uptake into THP1 (leukocytic) cells (THP1 cells) | uptake into HL-60 (leukocytic) cells (HL60 cells) | uptake into HT29 (tumor) cells (HT29 cells)
